Data reported in ChEMBL document CHEMBL3414544, “PAINS in the assay: chemical mechanisms of assay interference and promiscuous enzymatic inhibition observed during a sulfhydryl-scavenging HTS” (J Med Chem, 2015).

Biological target: T1, Histone acetyltransferase RTT109 (Saccharomyces cerevisiae (strain ATCC 204508 / S288c) (Baker's yeast), UniProt Q07794)
T1 sequence (Q07794 whole entry): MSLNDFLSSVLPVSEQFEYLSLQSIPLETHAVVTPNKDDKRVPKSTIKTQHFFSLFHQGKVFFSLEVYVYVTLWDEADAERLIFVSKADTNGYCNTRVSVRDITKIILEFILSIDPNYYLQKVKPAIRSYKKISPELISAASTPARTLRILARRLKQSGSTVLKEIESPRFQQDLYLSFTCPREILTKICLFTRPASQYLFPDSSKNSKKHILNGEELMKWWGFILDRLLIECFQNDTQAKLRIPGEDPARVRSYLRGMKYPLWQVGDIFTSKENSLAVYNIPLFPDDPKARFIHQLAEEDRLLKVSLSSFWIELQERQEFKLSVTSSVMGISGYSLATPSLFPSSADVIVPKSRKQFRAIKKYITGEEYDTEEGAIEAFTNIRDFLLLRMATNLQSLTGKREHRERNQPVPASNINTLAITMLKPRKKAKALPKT
Experiment: Inhibition of Vps75-stimulated recombinant Saccharomyces cerevisiae histone acetyltransferase Rtt109 using Asf1-dH3-H4 as substrate assessed as coenzyme A production after 45 mins by CPM based HTS assay
Outline: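 Recombinant Rtt109–Vps75 at 50 nM, with Asf1–dH3–H4 as substrate and acetyl-CoA as acetyl donor. Buffer contained freshly prepared 0.01% Triton X-100. The CoA product was detected by fluorescence of its CPM adduct. Plates had Z′ ≥0.5. IC50 came from a four-parameter variable-slope fit.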

SMILES: O=C1C=CC(=O)N1c1ccc(Cl)cc1
- IC50: 6.3 µM
